Laboratory results as given in paper PMC12797171, “Preclinical Evaluation of a ^177Lu-Labeled Gastrin-Releasing Peptide Receptor Antagonist and Prostate Cancer Treatment with Monotherapy and in Combination with Everolimus” (ACS Pharmacology & Translational Science, 2025).

Protein sequences, listed by entry. Tags and fused reporters are not part of them. Lines headed by an entry give the natural chain unless they say otherwise; changes in a name come on top.
UniProt P30550: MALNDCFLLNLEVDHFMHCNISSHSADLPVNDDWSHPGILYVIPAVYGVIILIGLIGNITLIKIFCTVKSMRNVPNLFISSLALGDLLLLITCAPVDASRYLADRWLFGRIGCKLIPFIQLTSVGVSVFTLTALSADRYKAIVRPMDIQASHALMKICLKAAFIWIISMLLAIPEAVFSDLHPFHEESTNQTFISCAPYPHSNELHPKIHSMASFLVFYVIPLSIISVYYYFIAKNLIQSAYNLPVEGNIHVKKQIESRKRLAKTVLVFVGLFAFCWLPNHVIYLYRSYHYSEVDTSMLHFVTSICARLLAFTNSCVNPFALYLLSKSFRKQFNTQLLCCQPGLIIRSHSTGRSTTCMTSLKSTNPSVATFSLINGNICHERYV

Tests used:
[1] = target: T1, gastrin-releasing peptide receptor (GRPR) (Homo sapiens, UniProt P30550); assay: LigandTracer real-time binding affinity and kinetics in PC-3 cells
T1 construct: host or cells: PC-3 (human prostate adenocarcinoma) cells
Procedure: For [^177Lu]-Lu-LF1 and ligand–receptor interaction kinetics, 3 × 10^6 PC-3 cells were seeded (supplementary data, Table S5). The association measurements were initiated with [^177Lu]-Lu-LF1 at a final concentration of 1 nM. […] At that point, the radioligand-containing medium was replaced with fresh complete medium to initiate the dissociation phase. All measurements were performed in triplicate. […] page 4: within 10 min at room temperature (r.t.). The quality control of the radiolabeling mixture was performed by radio thin-layer chromatography (TLC) and High-Performance Liquid Chromatography (HPLC) analysis, as described with details in the supplementary data. For the radiolabeling procedures involving high levels of radioactivity, ascorbic acid was added to the [177Lu]Lu-LF1 radiolabeling mixture immediately after completion of the radiolabeling, to a final concentration of 20 µg/µL, in order to prevent autoradiolysis. […] Cells were suspended in 4-5 mL of complete medium and seeded in one part of a 10 cm plastic petri dish, while keeping the dish in an angle. The day of the experiment, supernatant was aspirated and the dish was washed gently with 4 mL of media and the liquid was removed by aspiration. Next, 8-10 mL of complete media were introduced and the dish with the cells was left to incubate at 37 °C for 0.5-1 h. Then, the medium was removed and the cells were placed in the holder of a LigandTracer White or Grey (Ridgeview Instruments AB, Uppsala, Sweden). New media (3 mL) were introduced and background measurements were conducted for approximately 20-30 min, then the measurements of the kinetics were performed as stated in the “Materials and Methods” section of the manuscript. […] Blood was immediately transferred to pre-chilled heparinized tubes and centrifuged (5 min, 1700 g, 4 °C) for plasma isolation. […] After careful separation of the two phases (precipitated proteins and supernatant), the respective activities were measured in a γ-counter to determine the percentage of the radiotracer S4

[2] = system: PC-3 tumors; assay: Biodistribution in PC-3 tumor-bearing mice; format: in vivo, mouse
Procedure: Male athymic Balb/C nude mice (6 weeks old, 20–25 g; RRID:IMSR_JAX:002019) were subcutaneously implanted with PC-3 cells (3 × 10^6 in 100 μL PBS) into the right shoulder. Once tumors reached 250–300 mm^3 (18–20 days postimplantation), mice were used for biodistribution and SPECT/CT imaging. For all studies, mice were randomly grouped to ensure similar tumor size distribution. All procedures were approved by local authorities and conducted in accordance with institutional guidelines (license BE63/2021; 33892).
At 1, 4, 24, 48, 72, 96, and 144 h postinjection, animals were euthanized with an overdose of pentobarbital sodium (150 mg/kg i.p.). Selected organs were collected, weighed, and measured for radioactivity using a γ-counter. Biodistribution is expressed as % injected activity per gram (% IA/g, mean ± SD; n = 3–4). For specificity assessment, blocking studies (n = 3) were conducted by coinjecting [^177Lu]-Lu-LF1 with 20 nmol of H-D-Phe-Gln-Trp-Ala-Val-Gly-His-Sta-Leu-NH2; biodistribution was assessed at 4 h p.i..

[3] = mouse, in vivo
Procedure: The quality control of the radiolabeling mixture was performed by radio thin-layer chromatography (TLC) and High-Performance Liquid Chromatography (HPLC) analysis, as described with details in the supplementary data. For the radiolabeling procedures involving high levels of radioactivity, ascorbic acid was added to the [177Lu]Lu-LF1 radiolabeling mixture immediately after completion of the radiolabeling, to a final concentration of 20 µg/µL, in order to prevent autoradiolysis. […] Cells were suspended in 4-5 mL of complete medium and seeded in one part of a 10 cm plastic petri dish, while keeping the dish in an angle. The day of the experiment, supernatant was aspirated and the dish was washed gently with 4 mL of media and the liquid was removed by aspiration. Next, 8-10 mL of complete media were introduced and the dish with the cells was left to incubate at 37 °C for 0.5-1 h. Then, the medium was removed and the cells were placed in the holder of a LigandTracer White or Grey (Ridgeview Instruments AB, Uppsala, Sweden). […] After careful separation of the two phases (precipitated proteins and supernatant), the respective activities were measured in a γ-counter to determine the percentage of the radiotracer S4

[4] = Area under the time-activity curves (AUC); conditions: mouse, in vivo
Procedure: The area under the time-activity curves (AUC) in the tumor, blood, pancreas and kidneys were calculated from the noncorrected biodistribution data using GraphPad Prism. The results of AUC are expressed as % IA/g × h and presented as mean values ± SD (n = 3) (supplementary data: Table S7).

Substance: [177Lu]Lu-LF1: GRPR antagonist LF1 (AAZTA^5-Pip-D-Phe-Gln-Trp-Ala-Val-Gly-His-Sta-Leu-NH2) radiolabeled with lutetium-177 (FQWAVGH; AAZTA5-Pip, Sta-Leu-NH2, 177Lu; printed: Phe-Gln-Trp-Ala-Val-Gly-His-)
- association rate constant (Kon) [1]: 2.5 × 10^5 ± 0.2 × 10^5 M^–1s^–1
- dissociation rate constant (Koff) [1]: 3.2 × 10^–5 ± 0.1 × 10^–5 s^–1
- Kd ([1]; 1-1 interaction model): 0.1 nM
- tumor/kidney ratio ([2]; 1 h p.i.): 5.9 ± 0.3
- tumor/kidney ratio ([2]; 4 h p.i.): 8.8 ± 0.8
- tumor/kidney ratio ([2]; 24 h p.i.): 10 ± 1.0
- tumor/kidney ratio ([2]; 48 h p.i.): 11 ± 1.8
- tumor/kidney ratio ([2]; 72 h p.i.): 9.9 ± 1.8
- tumor/kidney ratio ([2]; 96 h p.i.): 6.1 ± 0.0
- tumor/kidney ratio ([2]; 144 h p.i.): 4.9 ± 0.2
- Tumor-to-pancreas ratio ([2]; mouse, in vivo): > 20
- activity bound to murine plasma proteins [3]: 3.2%
- Blood, individual mice [4]: 0.12 %IA/g
- tumor AUC relative to pancreas or kidneys [4]: about 5 times
